# Reference: PubChem BioAssay AID652010 (The Scripps Research Institute Molecular Screening Center, 2013)
# The list shows a part of the results, in another mix than the full data. Some tests of the compounds listed are not included; inactive here does not mean inactive elsewhere. Activity calls are given as the source filed them.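 The calls were made as follows: active = inhibition above the mean over all tested compounds plus 3 SD (cut at about 3.6% in these data); inactive = the rest.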
# Experiment: DAX1 (NR0B1) inhibitors on StAR promoter, primary screen, cell-based, luminescence, SF-1 (NR5A1), full-length DAX-1 (AID 652010);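 also: 0% = DAX-1 cells with DMSO and 100% = cells lacking DAX-1 with DMSO; higher inhibition means more luminescence from relief of DAX-1 repression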
# Conditions: HEK293T StAR-luciferase reporter, SF-1/DAX-1 repression relief; at 6.8 µM; active compounds read high
row,SMILES,inhibition
1,COc1cc(C(=O)NCC2(N(C)C)CCCCC2)c([N+](=O)[O-])cc1OC,inactive: -0.38%
2,CN(C)C1(CNC(=O)c2ccc(Br)cc2)CCCCC1,inactive: -0.6%
3,O=C(NCC1(N2CCCCC2)CCCCC1)c1cccc(Cl)c1,inactive: 1.26%
4,COc1cccc(C(=O)NCC2(N3CCCCC3)CCCCC2)c1,inactive: 1.22%
5,COc1ccc(Cl)cc1C(=O)NCC1(N(C)C)CCCCC1,inactive: 0.1%
6,O=C(OC1CN2CCC1CC2)C(CO)(c1ccccc1)c1ccccc1 (stereo unspecified),inactive: 0.2%
7,CC(C)Oc1ccc(C(=O)NCC2(N(C)C)CCCCC2)cc1,inactive: 0.44%
8,O=C(OCCN1CCCC1)C(O)(c1ccccc1)c1ccccc1,inactive: 0.26%
9,CN(C)c1cccc(C(=O)NCC2(N(C)C)CCCCC2)c1,inactive: 0.16%
10,C=C(C)C#CC(O)(C(=O)OC1CCN(C)CC1)c1ccccc1 (stereo unspecified),inactive: -0.5%
11,COc1ccc(Br)c(C(=O)NCC2(N3CCCCC3)CCCCC2)c1,inactive: 0.43%
12,CN1[C@@H]2CC[C@H]1CC(OC(=O)C(O)(c1ccccc1)c1ccccc1)C2 (stereo partly specified),inactive: 0.99%
13,O=C(NCC1(N2CCCCC2)CCCCC1)c1cc([N+](=O)[O-])ccc1Cl,inactive: 0.37%
14,Cc1ccc(C(=O)NCC2(N3CCCCC3)CCCCC2)cc1,inactive: 0.91%
15,CCN(CC)CC(C)C(C)OC(=O)C(O)(c1ccccc1)c1ccccc1 (stereo unspecified),inactive: 0.92%
16,COc1cc(SC)ccc1C(=O)NCC1(N(C)C)CCCCC1,inactive: -0.23%
17,CC(C)N1C(=O)CC2(CCN(CCOC(=O)C(O)(c3ccccc3)c3ccccc3)CC2)C1=O,inactive: -0.51%
18,Cc1ccccc1C(=O)NCC1(N2CCCCC2)CCCCC1,inactive: -0.46%
19,CN(C)C1CCCC1OC(=O)C(O)(c1ccccc1)c1ccccc1 (stereo unspecified),inactive: 0.26%
20,CN(C)c1ccc(C(=O)NCC2(N(C)C)CCCCC2)cc1,inactive: 0.79%
21,COc1ccc(C(=O)NCC2(N(C)C)CCCCC2)cc1,inactive: -0.57%
22,Cc1cc(C(=O)NCC2(N3CCCCC3)CCCCC2)ccc1[N+](=O)[O-],inactive: 0.97%
23,CCN1CCCC(OC(=O)C2(O)c3ccccc3C=Cc3ccccc32)C1 (stereo unspecified),inactive: -0.4%
24,O=C(NCC1(N2CCCCC2)CCCCC1)c1cccc(Br)c1,inactive: 0.86%
25,C=CCN1CCN(CCOC(=O)C(O)(c2ccccc2)c2ccccc2)CC1,inactive: 0.72%
26,O=C(NCC1(N2CCCCC2)CCCCC1)c1cc(F)c(F)cc1Cl,inactive: 0.46%
